# Ab-14 heavy chain CDR variants: yeast mating affinities

The measurements come from Li et al. 2023 (doi:10.1038/s41467-023-39022-2) through the FLAb antibody collection.

Target: peptide PDVDLGDISGINAS, taken from heptad repeat 2 (HR2) of SARS-CoV-2 spike.

Each scFv is VH, a (GGGGS)3 linker, VL, as in the parent Ab-14, and differs from it in the CDRs of the heavy chain only.
VH: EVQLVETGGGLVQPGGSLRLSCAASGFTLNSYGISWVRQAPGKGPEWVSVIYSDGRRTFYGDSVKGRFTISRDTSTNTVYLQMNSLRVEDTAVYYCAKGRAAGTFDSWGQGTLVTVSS
VL: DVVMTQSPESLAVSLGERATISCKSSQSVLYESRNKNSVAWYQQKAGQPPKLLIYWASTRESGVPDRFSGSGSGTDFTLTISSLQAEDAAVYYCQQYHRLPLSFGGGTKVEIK

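Phage display of a naive human antibody library on the peptide gave the parent. Designed CDR sequences, proposed from the first random library and measured here. Group labels follow the data file (Ctrl: baseline library sampled from a position-specific scoring matrix, with some repeated check sequences; GPLM: also part of the Gaussian process libraries; Gen: genetic algorithm; Gibbs: Gibbs sampling; a sequence that several methods proposed may carry one label only). In AlphaSeq, yeast of one mating type display the scFv and yeast of the other type display the target. Binding brings cells together so that they mate, and sequencing counts the barcode pairs among the diploids. A regression on co-assayed BCL2-family reference pairs converts the normalised counts of each replicate to an apparent Kd. There are six technical replicates.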

Positions count from residue 1 of the parent VH; A101H puts H in place of A.
Values are log10 of the apparent Kd in nM; lower means stronger binding.
Replicates are averaged; those with no signal do not enter the mean.
"n.d." marks a missing value. The strain was present, yet no cells mated with the target were sequenced in that replicate, which points to weak or no binding.
The parent sequence was in this pool as ten entries: three were never detected, three once, and four in most replicates, with averages from 0.34 to 2.37.
A sequence measured in both rounds can read differently, since the two assays cover different ranges.
In the paper, a design with two or fewer of six values counts as a poor binder.
Nonspecific signal, from three strains lacking the peptide, appeared in 1% of pairings of all heavy chain designs, centred on 2.08 (5% of these signals below 0.84); values are not corrected for it. Also given: how often the same scFv was detected with the empty control strains, with their mean in brackets.
Some sequences occur more than once in the pool; their replicates are listed entry by entry, parted by semicolons.

changes	group	replicates, log10 nM	mean, log10 nM	empty controls
A101H+S107V	Ctrl	n.d. / n.d. / 2.71 / n.d. / 2.12 / 2.55	2.46	0 of 18
I34V+R56H+G61S+A101S+A102M	Ctrl	n.d. / n.d. / n.d. / n.d. / n.d. / n.d.	n.d.	0 of 18
T28G+S31E+R100Q+S107D	Ctrl	n.d. / n.d. / n.d. / n.d. / 2.62 / n.d.	2.62	0 of 18
S63D+G103L	Ctrl	n.d. / n.d. / n.d. / n.d. / n.d. / n.d.	n.d.	0 of 18
R56M+A102S	Ctrl	n.d. / n.d. / n.d. / n.d. / n.d. / n.d.	n.d.	0 of 18
T28D+T104F+F105D	Ctrl	n.d. / n.d. / n.d. / n.d. / 1.98 / n.d.	1.98	0 of 18
R56Q+T104A+F105W	Ctrl	n.d. / n.d. / n.d. / n.d. / n.d. / n.d.	n.d.	0 of 18
R56F+A101E+F105P	Ctrl	0.95 / 0.83 / 0.99 / 0.80 / 0.62 / 1.48	0.95	0 of 18
T28S+N30T+G99I+T104H	Ctrl	n.d. / n.d. / n.d. / n.d. / n.d. / n.d.	n.d.	0 of 18
T28S+S31E+G61I+S63D+R100G+A101H	Ctrl	0.32 / -0.01 / -0.15 / -0.04 / 0.00 / -0.03	0.01	0 of 18
V64F+A101N+S107M	Ctrl	n.d. / n.d. / n.d. / n.d. / n.d. / n.d.	n.d.	0 of 18
R100K+A101N	Ctrl+GPLM_Gibbs	1.14 / n.d. / n.d. / 2.02 / n.d. / 1.66; 1.28 / 1.61 / 2.04 / 0.67 / 2.35 / 1.31	1.56	0 of 36
L29M+S31T+G61S+R100F	Ctrl	n.d. / n.d. / n.d. / n.d. / n.d. / n.d.	n.d.	0 of 18
R56L+R100H+A101E+S107L	Ctrl	0.47 / 0.66 / 0.74 / 0.15 / 0.77 / 0.49	0.55	0 of 18
S31E+A101M	Ctrl+GPLM_Gen	0.24 / 0.99 / 0.12 / 0.73 / 0.28 / 0.71; n.d. / n.d. / 1.75 / 1.18 / 1.39 / 0.20	0.76	0 of 36
S31D+I34A+R56T+S63I+R100Q+A102T	Ctrl	n.d. / n.d. / n.d. / n.d. / n.d. / n.d.	n.d.	0 of 18
G26E+F27A+T28D+S107I	Ctrl	n.d. / n.d. / n.d. / n.d. / n.d. / n.d.	n.d.	0 of 18
S53A+F59I+R100S	Ctrl	2.10 / 1.49 / n.d. / 0.67 / 1.45 / 0.74	1.29	1 of 18 (1.19)
F27E+S31D+G33S+G99A+A101E	Ctrl	n.d. / n.d. / n.d. / n.d. / n.d. / n.d.	n.d.	0 of 18
L29M+G61T+T104G+S107D	Ctrl	n.d. / n.d. / n.d. / n.d. / n.d. / n.d.	n.d.	2 of 18 (2.10)
L29V+N30K+A101T	Ctrl	n.d. / n.d. / n.d. / n.d. / 1.44 / n.d.	1.44	0 of 18
A101T+D106I	Ctrl	n.d. / n.d. / n.d. / n.d. / n.d. / n.d.	n.d.	0 of 18
F59Q+D62N	Ctrl	n.d. / n.d. / n.d. / n.d. / n.d. / n.d.	n.d.	0 of 18
T28P+G103C+D106C	Ctrl	n.d. / n.d. / n.d. / n.d. / n.d. / n.d.	n.d.	0 of 18
S53A+S107Y	Ctrl	1.11 / 0.36 / 0.06 / 0.66 / 1.01 / 1.57	0.79	0 of 18
I51M+T104G	Ctrl	n.d. / n.d. / n.d. / n.d. / n.d. / n.d.	n.d.	0 of 18
G26Q+F27N+G61Q+G99C+A101Q+A102S+F105D+S107E	Ctrl	n.d. / 1.60 / n.d. / n.d. / n.d. / n.d.	1.60	0 of 18
T28S+S31D+F59A+S107L	Ctrl	0.10 / -0.02 / -0.34 / -0.39 / -0.07 / 0.20	-0.09	1 of 18 (1.88)
L29I+N30E	Ctrl	n.d. / 2.32 / n.d. / 2.08 / 1.71 / 2.13	2.06	0 of 18
A102T+F105V	Ctrl	n.d. / n.d. / n.d. / n.d. / n.d. / n.d.	n.d.	0 of 18
S63E+R100Q+A101N+S107L	Ctrl	1.91 / 2.44 / n.d. / 1.88 / 3.29 / 1.85	2.27	0 of 18
T28N+N30E+S31D+S63E+R100S+T104K+D106L	Ctrl	n.d. / n.d. / n.d. / n.d. / n.d. / n.d.	n.d.	1 of 18 (1.61)